Data taken from patent US20110053873A1 (published 2011).

Molecular target: HSP90α (Homo sapiens, UniProt P07900, I104V)
Test: Enzyme binding (competition fluorescence polarization) assay with TSD-FP probe

pIC50 | SMILES
8.00 | COc1cccc(-c2cc(F)ccc2[C@H]2Cc3nc(N)nc(C)c3/C(=N/OC[C@H]3COCCO3)N2)n1 [Compound 40, (R,Z)-2-Amino-7-(4-fluoro-2-(6-methoxypyridin-2-yl)phenyl)-4-methyl-7,8-dihydropyrido[4,3-d]pyrimidin-5(6H)-one O—((R)-1,4-dioxan-2-yl)methyl oxime]
8.00 | COc1cccc(-c2cc(F)ccc2[C@H]2Cc3nc(N)nc(C)c3C(NOCCC[C@H](O)CO)=N2)n1 [Compound 75, (R,Z)-2-amino-7-(4-fluoro-2-(6-methoxypyridin-2-yl)phenyl)-4-methyl-7,8-dihydropyrido[4,3-d]pyrimidin-5(6H)-one O—(S)-4,5-dihydroxypentyl oxime]

pIC50: −log10 of the molar value.
